## Measured affinities in a library of Ab-14 heavy chain variants

The target is the same throughout: PDVDLGDISGINAS, from the HR2 region of SARS-CoV-2 spike.

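Phage display of a naive human antibody library on the peptide gave the parent. Variants in AAYL49 differ from the parent at up to three CDR positions; double and triple changes were sampled at random. In AlphaSeq, yeast of one mating type display the scFv and yeast of the other type display the target. Pairs that bind mate more often; barcode pairs of the diploids are counted by sequencing. Each replicate has its own calibration line, from reference interactions of the BCL2 family. The assay was run in three technical replicates.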

Parent scFv Ab-14: VH joined to VL by three GGGGS repeats. Changes lie in the heavy chain CDRs alone.
VH: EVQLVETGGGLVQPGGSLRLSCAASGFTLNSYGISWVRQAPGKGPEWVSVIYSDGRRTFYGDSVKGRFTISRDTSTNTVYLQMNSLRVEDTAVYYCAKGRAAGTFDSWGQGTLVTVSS
VL: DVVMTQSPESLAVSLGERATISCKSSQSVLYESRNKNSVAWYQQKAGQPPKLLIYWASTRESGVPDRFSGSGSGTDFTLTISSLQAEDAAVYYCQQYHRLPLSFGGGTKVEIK

The whole VH of each variant is written out. Numbers give log10(Kd / nM), so 0 is 1 nM and 3 is 1 µM. Smaller is tighter. "n.d." means that the variant was in the library but no mating with the target was seen in that replicate; the authors take this as a sign of poor binding, and no number exists. Parent in this assay: reference entry 0.65, copy in this library 4.11 (one replicate of three). Three control strains display no target. For library AAYL49, 15% of the pairings with them gave a signal, with a median of 4.06 and one signal in twenty below 2.83, so weak values seen in few replicates may be background.

VH | log10 Kd, replicates
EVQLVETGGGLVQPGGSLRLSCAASGFTLNSYGISWVRQAPGKGPEWVSVIYSDGRRTFYGDSCKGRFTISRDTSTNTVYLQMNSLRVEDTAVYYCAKGRAAGTMDNWGQGTLVTVSS | 2.96 1.83 1.85
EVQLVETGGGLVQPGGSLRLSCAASGFTLNSYGISWVRQAPGKGPEWVSYIYMDGRRTFYGDSVKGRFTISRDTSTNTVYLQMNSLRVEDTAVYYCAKGRAAGNFDSWGQGTLVTVSS | n.d. n.d. n.d.
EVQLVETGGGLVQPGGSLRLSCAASGFTLNSYGISWVRQAPGKGPEWVSVKYEDGRRTFYGDSGKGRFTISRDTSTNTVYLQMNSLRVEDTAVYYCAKGRAAGTFDSWGQGTLVTVSS | n.d. 4.29 n.d.
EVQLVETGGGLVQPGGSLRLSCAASGFYLNSYGISWVRQAPGKGPEWVSQIYSDGRRTFYGDSVAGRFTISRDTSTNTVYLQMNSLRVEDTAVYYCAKGRAAGTFDSWGQGTLVTVSS | 3.61 n.d. n.d.
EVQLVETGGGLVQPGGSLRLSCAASGFTPNSYGISWVRQAPGKGPEWVSVIYSDGRRTFYGDSVKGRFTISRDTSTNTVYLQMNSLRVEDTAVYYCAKGRAAGTPDSWGQGTLVTVSS | n.d. n.d. n.d.
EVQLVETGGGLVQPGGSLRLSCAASGFTLNFKGISWVRQAPGKGPEWVSVIESDGRRTFYGDSVKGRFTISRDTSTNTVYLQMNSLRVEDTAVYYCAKGRAAGTFDSWGQGTLVTVSS | n.d. n.d. n.d.
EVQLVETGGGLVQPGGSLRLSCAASGFTLNGYGISWVRQAPGKGPEWVSRIYSDHRRTFYGDSVKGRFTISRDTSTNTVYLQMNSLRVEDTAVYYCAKGRAAGTFDSWGQGTLVTVSS | n.d. n.d. n.d.
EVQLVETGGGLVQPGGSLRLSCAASGFTTNSYGISWVRQAPGKGPEWVSVISSDGRRRFYGDSVKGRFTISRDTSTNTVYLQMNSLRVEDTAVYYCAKGRAAGTFDSWGQGTLVTVSS | n.d. n.d. n.d.
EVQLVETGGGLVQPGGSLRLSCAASGQTLNSYGIYWVRQAPGKGPEWVSVIYSDGRRTFYGDSVKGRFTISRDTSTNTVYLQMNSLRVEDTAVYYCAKGRGAGTFDSWGQGTLVTVSS | n.d. n.d. n.d.
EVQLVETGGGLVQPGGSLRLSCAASGFTLNSYGISWVRQAPGKGPEWVSVIYSDGRRTFYGDPVQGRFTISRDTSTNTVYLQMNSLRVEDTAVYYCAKGRAAGTFDSWGQGTLVTVSS | 1.31 1.59 1.70
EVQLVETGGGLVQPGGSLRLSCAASGFTLNSYGISWVRQAPGKGPEWVSVIYSDGRDTFYGDSVKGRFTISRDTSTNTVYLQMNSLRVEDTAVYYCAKGLTAGTFDSWGQGTLVTVSS | n.d. n.d. n.d.
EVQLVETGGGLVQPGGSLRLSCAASGFTLNSYGIKWVRQAPGKGPEWVSVIYSDGRRSFYGDSVKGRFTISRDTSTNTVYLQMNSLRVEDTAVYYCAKGKAAGTFDSWGQGTLVTVSS | n.d. 4.18 n.d.
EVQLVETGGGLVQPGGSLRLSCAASGFTLNSYGISWVRQAPGKGPEWVSVINSHGCRTFYGDSVKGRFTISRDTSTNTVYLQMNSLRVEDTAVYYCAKGRAAGTFDSWGQGTLVTVSS | n.d. n.d. n.d.
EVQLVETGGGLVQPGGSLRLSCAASGFTLNSYGISWVRQAPGKGPEWVSVIYTDGRRSFYGLSVKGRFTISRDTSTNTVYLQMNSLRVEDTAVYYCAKGRAAGTFDSWGQGTLVTVSS | n.d. 4.99 n.d.
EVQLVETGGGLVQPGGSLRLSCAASGFTLNSYGISWVRQAPGKGPEWVSVIDSDGERTFLGDSVKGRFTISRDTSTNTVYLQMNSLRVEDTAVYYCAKGRAAGTFDSWGQGTLVTVSS | n.d. n.d. n.d.
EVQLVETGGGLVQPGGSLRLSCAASGFTLNSYGISWVRQAPGKGPEWVSVIYMEGRRTFYGDSVKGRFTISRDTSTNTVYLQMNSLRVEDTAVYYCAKGRAAGTWDSWGQGTLVTVSS | n.d. n.d. n.d.
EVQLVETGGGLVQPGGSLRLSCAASGFTLNSYGISWVRQAPGKGPEWVSVIYSDGTRTFYGDSVKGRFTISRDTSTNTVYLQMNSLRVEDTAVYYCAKGRAAGTFGSWGQGTLVTVSS | n.d. 3.51 4.95
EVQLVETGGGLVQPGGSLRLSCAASGFTLNSYGISWVRQAPGKGPEWVSVIYPDGRRTFIGDSVKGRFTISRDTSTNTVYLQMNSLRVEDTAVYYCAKGRAAGTFDSWGQGTLVTVSS | 3.01 n.d. n.d.
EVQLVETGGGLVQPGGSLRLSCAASGFTLNSYGISWVRQAPGKGPEWVSVIYSDGRETFYGDSVKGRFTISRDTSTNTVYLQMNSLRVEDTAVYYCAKGRAKGTFDPWGQGTLVTVSS | n.d. n.d. n.d.
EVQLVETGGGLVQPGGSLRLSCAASGFTLNSYGISWVRQAPGKGPEWVSVIFYDGRRTFYGDSVKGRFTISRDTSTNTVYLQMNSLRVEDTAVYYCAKGLAAGTFDSWGQGTLVTVSS | 3.78 3.15 n.d.
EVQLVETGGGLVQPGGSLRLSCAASGFPLNSYGISWVRQAPGKGPEWVSVIYIDGARTFYGDSVKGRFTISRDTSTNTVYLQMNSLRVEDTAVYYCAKGRAAGTFDSWGQGTLVTVSS | 2.37 n.d. 3.63
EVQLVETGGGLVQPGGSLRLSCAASGFTLNSYGYSWVRQAPGKGPEWVSVIYSDSRRTFYGDSVTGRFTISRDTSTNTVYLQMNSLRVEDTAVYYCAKGRAAGTFDSWGQGTLVTVSS | n.d. n.d. n.d.
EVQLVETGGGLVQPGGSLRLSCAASGFTLNSYGISWVRQAPGKGPEWVSDIYSDGRRDFYGDSVKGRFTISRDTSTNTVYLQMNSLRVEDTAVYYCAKGRAAGTGDSWGQGTLVTVSS | n.d. n.d. n.d.
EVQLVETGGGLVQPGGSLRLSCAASGFTLNSKGISWVRQAPGKGPEWVSVIYSDGRRTFYGDSVKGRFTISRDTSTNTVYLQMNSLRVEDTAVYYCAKGRAAGVQDSWGQGTLVTVSS | n.d. n.d. n.d.
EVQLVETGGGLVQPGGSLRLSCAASGFTLNSYGISWVRQAPGKGPEWVSVILKDGRRTFYGQSVKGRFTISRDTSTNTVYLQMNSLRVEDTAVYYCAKGRAAGTFDSWGQGTLVTVSS | n.d. n.d. n.d.

The last 2 entries again:

VH,"log10 Kd, replicates"
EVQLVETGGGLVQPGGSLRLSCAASGFTLNSKGISWVRQAPGKGPEWVSVIYSDGRRTFYGDSVKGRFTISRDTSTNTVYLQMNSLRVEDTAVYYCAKGRAAGVQDSWGQGTLVTVSS,n.d. n.d. n.d.
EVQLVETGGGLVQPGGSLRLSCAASGFTLNSYGISWVRQAPGKGPEWVSVILKDGRRTFYGQSVKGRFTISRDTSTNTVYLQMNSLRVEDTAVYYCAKGRAAGTFDSWGQGTLVTVSS,n.d. n.d. n.d.

Source: Engelhart et al. 2022 (doi:10.1038/s41597-022-01779-4), MIT Lincoln Laboratory and A-Alpha Bio; data file from the FLAb repository.